In patent US20050244472A1, “Intraocular drug delivery systems containing excipients with reduced toxicity and related methods” (Allergan, Inc., priority 2004, published 2005):
Read-outs that look alike come from different tables or passages of the source.

How the values were obtained:
ARPE-19 cells [1] = type: cell-based
Description: Cell morphology was visualized using light microscopy. Cell morphology observation using light microscopy permits determination of (i) cell number and density and (ii) whether or not cells in contact with an excipient agent display modified phenotype compared to a non-treated population of cells.
Cell morphology was analyzed in parallel by semi-quantitative scoring ranging from 5 to 1, from basal to lethal phenotype respectively, as shown in FIG. 23.
More specifically, cells were removed from an incubator for examination. Morphological shape of cells was visualized using a light microscope and CCD camera. Every 3 wells of a given concentration was observed through image analysis software. Then, a representative photograph describing the average appearance of cells was saved. The supernatant was either, kept for further predefined experiments to perform, or removed using vacuum-pump.
Resulting semi-quantitative scoring is represented as a function of time course and dose response. Score 5: wild type phenotype of non-treated cells, 100% confluent adherent cells. This phenotype very much vary following post-seeding time. For example, at confluence ARPE-19 cells at 1 day appear well defined with visible outer membrane and dark grey cytoplasm. After 3 days of confluence, limits between cells become less visible and cells adopt a more hexagonal shape and constitute an epithelium-like uniform dense structure. Score 4: density<100%. Cell shape has changed, some spaces are present between cells, few cells possibly detached. Score 3: […]. Spaces are sometimes present among cells, areas appears confluent while in others, cells detached. General cell shape starts showing non negligible alterations. Score 2: Cell density<50%. Cells adopt exclusively stressed appearance, presence of mass dead floating cells. Score 1: Cell density<10%. Presence of almost exclusively dead cells.
Based on quotation, each condition of the applied compound was given a score which allow to a morphology evolution profile to be prepared, ie. cell morphology as a function of compound concentration and time of exposure. […]

[2] = pH of excipient-containing incubating solutions; type: physicochemical
Description: For each concentration of tested compound, pH and osmolarity parameters were measured.

ARPE-19 cells [3] = test system: ARPE-19 cells
Source text: Cell viability and cell morphology were examined to evaluate the toxicity of excipients on retinal pigment epithelial cells. The human retina cell line used in these experiments is the ARPE-19 cell line (human adult-derived retinal pigmented epithelial cells). […] They form tight-junctions with transepithelial resistance of monolayers (Dunn K C et al., supra). […]
To assess cell viability, mitochondrial metabolism was quantified through conventional colorometric assays (i.e., the MTT assay). […] A resulting purple solution is spectrophotometrically measured. Cell viability is relative to amount of formazan and calculated as a percentage of remaining treated compared to non-treated cells.
Results from the MTT assay were expressed as a percentage of cell viability calculated using the following equation: % cell viability=ODtest/ODcontrol×100.
For each experiment, one concentration was performed in triplicate. Each point was spectrophotometrically read twice. Average of readings was calculated, then average from these 3 values was determined.
After 3 experiments were independently completed under the same conditions, a graph was plotted with cell viability expressed as a function of concentration (dose response) and for various incubation period (time course). […]

- Cell Morphology score, Mean (ARPE-19 cells [1]; 0.05% excipient, 24 Hours): 5.0
- Cell Morphology score, Mean (ARPE-19 cells [1]; 0.05% excipient, 48 Hours): 5.0
- Cell Morphology score, Mean (ARPE-19 cells [1]; 0.05% excipient, 72 Hours): 5.0
- Cell Morphology score, Mean (ARPE-19 cells [1]; 0.1% excipient, 24 Hours): 5.0
- Cell Morphology score, Mean (ARPE-19 cells [1]; 0.1% excipient, 48 Hours): 5.0
- Cell Morphology score, Mean (ARPE-19 cells [1]; 0.1% excipient, 72 Hours): 4.7
- Cell Morphology score, experiment 3 (ARPE-19 cells [1]; 0.1% excipient, 72 Hours): 4 (Score 4: density<100%)
- Cell Morphology score, Mean (ARPE-19 cells [1]; 0.5% excipient, 24 Hours): 5.0
- Cell Morphology score, Mean (ARPE-19 cells [1]; 0.5% excipient, 48 Hours): 4.7
- Cell Morphology score, experiment 3 (ARPE-19 cells [1]; 0.5% excipient, 48 Hours): 4 (Score 4: density<100%)
- Cell Morphology score, Mean (ARPE-19 cells [1]; 0.5% excipient, 72 Hours): 4.3
- Cell Morphology score, experiment 3 (ARPE-19 cells [1]; 0.5% excipient, 72 Hours): 3 (Score 3: 80%<Cell density<40%)
- Cell Morphology score, Mean (ARPE-19 cells [1]; 1.0% excipient, 24 Hours): 5.0
- Cell Morphology score, Mean (ARPE-19 cells [1]; 1.0% excipient, 48 Hours): 4.7
- Cell Morphology score, experiment 3 (ARPE-19 cells [1]; 1.0% excipient, 48 Hours): 4 (Score 4: density<100%)
- Cell Morphology score, Mean (ARPE-19 cells [1]; 1.0% excipient, 72 Hours): 3.7
- Cell Morphology score, experiment 3 (ARPE-19 cells [1]; 1.0% excipient, 72 Hours): 1 (Score 1: Cell density<10%)
- Cell Morphology score, Mean (ARPE-19 cells [1]; 5.0% excipient, 24 Hours): 4.3
- Cell Morphology score, experiment 3 (ARPE-19 cells [1]; 5.0% excipient, 24 Hours): 3 (Score 3: 80%<Cell density<40%)
- Cell Morphology score, Mean (ARPE-19 cells [1]; 5.0% excipient, 48 Hours): 4.7
- Cell Morphology score, experiment 3 (ARPE-19 cells [1]; 5.0% excipient, 48 Hours): 4 (Score 4: density<100%)
- Cell Morphology score, Mean (ARPE-19 cells [1]; 5.0% excipient, 72 Hours): 3.3
- Cell Morphology score, experiment 2 (ARPE-19 cells [1]; 5.0% excipient, 72 Hours): 4 (Score 4: density<100%)
- Cell Morphology score, experiment 3 (ARPE-19 cells [1]; 5.0% excipient, 72 Hours): 1 (Score 1: Cell density<10%)
- Cell Morphology score, Mean (ARPE-19 cells [1]; 10.0% excipient, 24 Hours): 4.3
- Cell Morphology score, experiment 3 (ARPE-19 cells [1]; 10.0% excipient, 24 Hours): 3 (Score 3: 80%<Cell density<40%)
- Cell Morphology score, Mean (ARPE-19 cells [1]; 10.0% excipient, 48 Hours): 3.3
- Cell Morphology score, experiment 2 (ARPE-19 cells [1]; 10.0% excipient, 48 Hours): 4 (Score 4: density<100%)
- Cell Morphology score, experiment 3 (ARPE-19 cells [1]; 10.0% excipient, 48 Hours): 1 (Score 1: Cell density<10%)
- Cell Morphology score, Mean (ARPE-19 cells [1]; 10.0% excipient, 72 Hours): 3.0
- Cell Morphology score, experiment 1 (ARPE-19 cells [1]; 10.0% excipient, 72 Hours): 4 (Score 4: density<100%)
- Cell Morphology score, experiment 2 (ARPE-19 cells [1]; 10.0% excipient, 72 Hours): 4 (Score 4: density<100%)
- Cell Morphology score, experiment 3 (ARPE-19 cells [1]; 10.0% excipient, 72 Hours): 1 (Score 1: Cell density<10%)
- pH ([2]; 0.1% excipient dilution in culture medium): 7.6
- pH ([2]; 0.5% excipient dilution in culture medium): 7.6
- pH ([2]; 1% excipient dilution in culture medium): 7.6
- pH ([2]; 5% excipient dilution in culture medium): 7.6
- pH ([2]; 10% excipient dilution in culture medium): 7.6
- pH ([2]; 20% excipient dilution in culture medium): 7.6
Substance: hydroxypropyl gamma-cyclodextrin [Cavasol]
- Cell Morphology score, experiment 1 (ARPE-19 cells [1]; 0.05% excipient, 24 Hours): 5 (Score 5: wild type phenotype of non-treated cells, 100% confluent adherent cells)
- Cell Morphology score, experiment 2 (ARPE-19 cells [1]; 0.05% excipient, 24 Hours): 5 (Score 5: wild type phenotype of non-treated cells, 100% confluent adherent cells)
- Cell Morphology score, experiment 3 (ARPE-19 cells [1]; 0.05% excipient, 24 Hours): 5 (Score 5: wild type phenotype of non-treated cells, 100% confluent adherent cells)
- Cell Morphology score, experiment 1 (ARPE-19 cells [1]; 0.05% excipient, 48 Hours): 5 (Score 5: wild type phenotype of non-treated cells, 100% confluent adherent cells)
- Cell Morphology score, experiment 2 (ARPE-19 cells [1]; 0.05% excipient, 48 Hours): 5 (Score 5: wild type phenotype of non-treated cells, 100% confluent adherent cells)
- Cell Morphology score, experiment 3 (ARPE-19 cells [1]; 0.05% excipient, 48 Hours): 5 (Score 5: wild type phenotype of non-treated cells, 100% confluent adherent cells)
- Cell Morphology score, experiment 1 (ARPE-19 cells [1]; 0.05% excipient, 72 Hours): 5 (Score 5: wild type phenotype of non-treated cells, 100% confluent adherent cells)
- Cell Morphology score, experiment 2 (ARPE-19 cells [1]; 0.05% excipient, 72 Hours): 5 (Score 5: wild type phenotype of non-treated cells, 100% confluent adherent cells)
- Cell Morphology score, experiment 3 (ARPE-19 cells [1]; 0.05% excipient, 72 Hours): 5 (Score 5: wild type phenotype of non-treated cells, 100% confluent adherent cells)
- Cell Morphology score, experiment 1 (ARPE-19 cells [1]; 0.1% excipient, 24 Hours): 5 (Score 5: wild type phenotype of non-treated cells, 100% confluent adherent cells)
- Cell Morphology score, experiment 2 (ARPE-19 cells [1]; 0.1% excipient, 24 Hours): 5 (Score 5: wild type phenotype of non-treated cells, 100% confluent adherent cells)
- Cell Morphology score, experiment 3 (ARPE-19 cells [1]; 0.1% excipient, 24 Hours): 5 (Score 5: wild type phenotype of non-treated cells, 100% confluent adherent cells)
- Cell Morphology score, experiment 1 (ARPE-19 cells [1]; 0.1% excipient, 48 Hours): 5 (Score 5: wild type phenotype of non-treated cells, 100% confluent adherent cells)
- Cell Morphology score, experiment 2 (ARPE-19 cells [1]; 0.1% excipient, 48 Hours): 5 (Score 5: wild type phenotype of non-treated cells, 100% confluent adherent cells)
- Cell Morphology score, experiment 3 (ARPE-19 cells [1]; 0.1% excipient, 48 Hours): 5 (Score 5: wild type phenotype of non-treated cells, 100% confluent adherent cells)
- Cell Morphology score, experiment 1 (ARPE-19 cells [1]; 0.1% excipient, 72 Hours): 5 (Score 5: wild type phenotype of non-treated cells, 100% confluent adherent cells)
- Cell Morphology score, experiment 2 (ARPE-19 cells [1]; 0.1% excipient, 72 Hours): 5 (Score 5: wild type phenotype of non-treated cells, 100% confluent adherent cells)
- Cell Morphology score, experiment 1 (ARPE-19 cells [1]; 0.5% excipient, 24 Hours): 5 (Score 5: wild type phenotype of non-treated cells, 100% confluent adherent cells)
- Cell Morphology score, experiment 2 (ARPE-19 cells [1]; 0.5% excipient, 24 Hours): 5 (Score 5: wild type phenotype of non-treated cells, 100% confluent adherent cells)
- Cell Morphology score, experiment 3 (ARPE-19 cells [1]; 0.5% excipient, 24 Hours): 5 (Score 5: wild type phenotype of non-treated cells, 100% confluent adherent cells)
- Cell Morphology score, experiment 1 (ARPE-19 cells [1]; 0.5% excipient, 48 Hours): 5 (Score 5: wild type phenotype of non-treated cells, 100% confluent adherent cells)
- Cell Morphology score, experiment 2 (ARPE-19 cells [1]; 0.5% excipient, 48 Hours): 5 (Score 5: wild type phenotype of non-treated cells, 100% confluent adherent cells)
- Cell Morphology score, experiment 1 (ARPE-19 cells [1]; 0.5% excipient, 72 Hours): 5 (Score 5: wild type phenotype of non-treated cells, 100% confluent adherent cells)
- Cell Morphology score, experiment 2 (ARPE-19 cells [1]; 0.5% excipient, 72 Hours): 5 (Score 5: wild type phenotype of non-treated cells, 100% confluent adherent cells)
- Cell Morphology score, experiment 1 (ARPE-19 cells [1]; 1.0% excipient, 24 Hours): 5 (Score 5: wild type phenotype of non-treated cells, 100% confluent adherent cells)
- Cell Morphology score, experiment 2 (ARPE-19 cells [1]; 1.0% excipient, 24 Hours): 5 (Score 5: wild type phenotype of non-treated cells, 100% confluent adherent cells)
- Cell Morphology score, experiment 3 (ARPE-19 cells [1]; 1.0% excipient, 24 Hours): 5 (Score 5: wild type phenotype of non-treated cells, 100% confluent adherent cells)
- Cell Morphology score, experiment 1 (ARPE-19 cells [1]; 1.0% excipient, 48 Hours): 5 (Score 5: wild type phenotype of non-treated cells, 100% confluent adherent cells)
- Cell Morphology score, experiment 2 (ARPE-19 cells [1]; 1.0% excipient, 48 Hours): 5 (Score 5: wild type phenotype of non-treated cells, 100% confluent adherent cells)
- Cell Morphology score, experiment 1 (ARPE-19 cells [1]; 1.0% excipient, 72 Hours): 5 (Score 5: wild type phenotype of non-treated cells, 100% confluent adherent cells)
- Cell Morphology score, experiment 2 (ARPE-19 cells [1]; 1.0% excipient, 72 Hours): 5 (Score 5: wild type phenotype of non-treated cells, 100% confluent adherent cells)
- Cell Morphology score, experiment 1 (ARPE-19 cells [1]; 5.0% excipient, 24 Hours): 5 (Score 5: wild type phenotype of non-treated cells, 100% confluent adherent cells)
- Cell Morphology score, experiment 2 (ARPE-19 cells [1]; 5.0% excipient, 24 Hours): 5 (Score 5: wild type phenotype of non-treated cells, 100% confluent adherent cells)
- Cell Morphology score, experiment 1 (ARPE-19 cells [1]; 5.0% excipient, 48 Hours): 5 (Score 5: wild type phenotype of non-treated cells, 100% confluent adherent cells)
- Cell Morphology score, experiment 2 (ARPE-19 cells [1]; 5.0% excipient, 48 Hours): 5 (Score 5: wild type phenotype of non-treated cells, 100% confluent adherent cells)
- Cell Morphology score, experiment 1 (ARPE-19 cells [1]; 5.0% excipient, 72 Hours): 5 (Score 5: wild type phenotype of non-treated cells, 100% confluent adherent cells)
- Cell Morphology score, experiment 1 (ARPE-19 cells [1]; 10.0% excipient, 24 Hours): 5 (Score 5: wild type phenotype of non-treated cells, 100% confluent adherent cells)
- Cell Morphology score, experiment 2 (ARPE-19 cells [1]; 10.0% excipient, 24 Hours): 5 (Score 5: wild type phenotype of non-treated cells, 100% confluent adherent cells)
- Cell Morphology score, experiment 1 (ARPE-19 cells [1]; 10.0% excipient, 48 Hours): 5 (Score 5: wild type phenotype of non-treated cells, 100% confluent adherent cells)
- overall cytotoxicity to ARPE-19 cells (conclusion in words) (ARPE-19 cells [3]): overall limited cytotoxicity
